Earlier results on one substance are cited in patent US8716300B2, “Frequency modulated drug delivery (FMDD)” (Synthonics, Inc., priority 2008, dated 2014).

The conditions of this data set: stability of the magnesium-ligand complex.

Turning to glycine-magnesium, the “log Keq” value is reported as 1.34.
